Values quoted from earlier work as cited in patent US6448011B1, “DNA encoding human alpha 1 adrenergic receptors and uses thereof” (Synaptic Pharmaceutical Corporation, priority 1992, dated 2002).

The chains behind the UniProt entries cited, without tags or fusion partners.
UniProt P23944, whole entry, looked up: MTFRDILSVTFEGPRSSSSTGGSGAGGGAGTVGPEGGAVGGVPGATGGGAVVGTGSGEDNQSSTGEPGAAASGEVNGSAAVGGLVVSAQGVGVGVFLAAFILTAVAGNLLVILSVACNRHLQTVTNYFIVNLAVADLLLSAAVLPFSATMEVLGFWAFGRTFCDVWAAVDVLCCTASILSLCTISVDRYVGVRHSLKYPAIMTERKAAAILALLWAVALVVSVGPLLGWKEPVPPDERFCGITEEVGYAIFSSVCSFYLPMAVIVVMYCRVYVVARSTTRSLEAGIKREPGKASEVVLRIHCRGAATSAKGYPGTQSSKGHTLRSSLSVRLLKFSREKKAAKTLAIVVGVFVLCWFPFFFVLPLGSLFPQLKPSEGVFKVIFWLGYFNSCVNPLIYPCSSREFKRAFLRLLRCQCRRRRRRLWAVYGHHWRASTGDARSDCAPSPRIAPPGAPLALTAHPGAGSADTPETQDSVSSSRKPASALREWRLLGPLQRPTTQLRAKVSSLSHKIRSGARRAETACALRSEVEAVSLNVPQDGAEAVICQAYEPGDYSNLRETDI

Key:
[1] = test system: α1-receptors from the hippocampus or vas deferens (α1a); conditions: cited from earlier work
rat α1a receptor = rat α1a receptor (Rattus norvegicus, UniProt P23944); conditions: rat α1a in COS-7 cells; cited from earlier work

## CN(CCCl)Cc1cc(Cl)c(NC2=NCCN2)c(Cl)c1
[1]
  inactivation of α1-receptors: did not inactivate
Rat α1a receptor
  inactivation of the binding site: resistant to inactivation
